Reference: article PMC9613624 (Journal of medicinal chemistry, 2022)

System: SW620 cells
Assay: Colony formation assay in SW620 cells
Format: cell-based
Conditions: 2 weeks, crystal violet

Structure (SMILES): Nc1ncccc1-c1nc2ccc(-c3ccccc3)nc2n1-c1ccc(C2(N)CCC2)cc1 [ARQ-092, 3-(3-(4-(1-Aminocyclobutyl)phenyl)-5-phenyl-3H-imidazo[4,5-b]pyridin-2-yl)pyridin −2-amine, reference compound]
- inhibition of colony formation (in words): comparative ability in inhibiting colony formation
